Results: PMC8285372, “Biochemical and functional characterization of mutant KRAS epitopes validates this oncoprotein for immunological targeting” (Nature Communications, 2021)

Legend:
[1] = biological target: HLA-B*07:02 (Homo sapiens, UniProt P01889); test: fluorescence polarization competitive peptide-binding assay; conditions: Experimental Affinity IC50
[2] = biological target: HLA-A*02:01 (Homo sapiens, UniProt P04439, D140Y/D185E/D98H/E176V/E277Q/G131W/G231S/I119V/I121R/I166T/I218V/L300P/L318F/N151K/N90K/P208A/P217A/Q86G/Q94H/R138H/R169H/T345S); type: binding
[3] = biological target: HLA-A*03:01 (Homo sapiens, UniProt P04439); test: p-HLA complex stability, scintillation proximity assay of β2-microglobulin dissociation; type: binding

## CC(C)C[C@H](NC(=O)[C@H](C)NC(=O)[C@H](CO)NC(=O)[C@H](CCCCN)NC(=O)CNC(=O)[C@@H](NC(=O)CNC(=O)[C@H](CCCNC(=N)N)NC(=O)[C@H](C)NC(=O)CN)C(C)C)C(=O)O [Peptide 10-19R]
[1]
  IC50: 0.044 µM

## LLWNGPMAV
[2]
  Experimental Stability (t1/2) Mean: 5.9 h
  Half_life, Setp #1: 6.7 h
  Half_life, Setp #2: 5.1 h
  k, Setp #1: 0.1041
  k, Setp #2: 0.1367

## VMYNLWKMK
[3]
  Experimental Stability (t1/2) Mean: 0.8 h
  Half_life, Setp #1: 0.9 h
  Half_life, Setp #2: 0.8 h
  k, Setp #1: 0.8096
  k, Setp #2: 0.8623
